The values below come from EP0863915B1.

The chains behind the UniProt entries cited, without tags or fusion partners. Residues count along the entry.
UniProt P08246, 30-267 limits assumed: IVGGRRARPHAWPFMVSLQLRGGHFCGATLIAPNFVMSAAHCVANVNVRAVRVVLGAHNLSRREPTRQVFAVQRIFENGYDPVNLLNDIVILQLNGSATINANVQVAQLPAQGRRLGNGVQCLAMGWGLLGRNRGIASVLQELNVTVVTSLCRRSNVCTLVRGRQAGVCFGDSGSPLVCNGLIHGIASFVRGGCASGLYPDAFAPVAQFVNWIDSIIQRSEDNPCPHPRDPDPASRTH

For the test, the target named is Elastase (Homo sapiens, UniProt P08246). As to the kind of experiment: In vitro assay of elastase with chromogenic substrate N-MeOSuc-Ala-Ala-Pro-Val-p-nitroanilide, in the presence of prodrug with or without porcine liver esterase. As for the experimental part: Elastase was assayed in vitro using the chromogenic substrate N-MeOSuc-Ala-Ala-Pro-Val-p-nitroanilide ([S] = 0.20 mM; Km = 0.16 mM), available commercially. The assay techniques are similar to those described by Mehdi, et al., Biochemical and Biophysical Research Communications, 166, 595 (1990). The assay mixture consists of partially purified elastase and substrate (0.2 mM) in 0.1 M HEPES (pH 7.5), 0.5 M NaCl, 10% DMSO and 0.1% Brij 35. The reaction (1 or 2 mL, in a plastic cuvette) is maintained at 37°C and the hydrolysis of the substrate is followed in the presence of MDL 104,569 and 5 units/mL of porcine liver esterase (Sigma Chemical Co., cat. no. E-3128). Elastase is isolated from human sputum, although recently it has become commercially available. The rate of hydrolysis of the substrate with no inhibitor or prodrug added is assigned 100%. In the presence of 1 µM MDL 104,569, a rate of 81% was obtained; when esterase (porcine liver, Sigma Chemical Co.) was also present, the rate decreased to 24%. At a concentration of 10 µM, the rate observed from the final extent of inhibition in the assay in the presence of esterase was 130 nM, compared to a Ki of 200 nM for the parent drug measured independently.
Elastase was assayed in vitro in the presence of MDL 105,565 using the techniques and procedures described in Example 18. With MDL 105,565, at a concentration of 10 nM, a rate of 99% was obtained; when esterase was added, this rate was 76%. At a concentration of 45 nM, the rates were 94% (without esterase) and 37% (with esterase). In this case, the Ki of the liberated drug was calculated to be 13 nM, compared with a Ki of 2 nM determined independently.

Like-named read-outs stand apart in the source and are kept apart here.

Take `COC(=O)/C(OC(C)=O)=C(\NC(=O)[C@@H]1CCCN1C(=O)[C@@H](NC(=O)c1ccc(C(=O)NS(=O)(=O)c2ccc(Cl)cc2)cc1)C(C)C)C(C)C`: the “rate of hydrolysis of the substrate” value (10 nM compound, esterase added) is reported as 76%; the “rate of hydrolysis of the substrate” value (10 nM compound, without esterase) is on record as 99%; the “rate of hydrolysis of the substrate” value (45 nM compound, with esterase) was 37%; the “rate of hydrolysis of the substrate” value (45 nM compound, without esterase) is reported as 94%. For the same molecule, the Ki (read-out: Ki of the liberated drug, calculated from the assay of the prodrug with esterase) was 13 nM.

Turning to `COC(=O)CCC(=O)N[C@@H](C)C(=O)N[C@@H](C)C(=O)N1CCC[C@H]1C(=O)NC(=C(OC(C)=O)C(=O)OC)C(C)C`, the “rate of hydrolysis of the substrate” value came out at 24% (1 µM compound, esterase (porcine liver) also present, rate with no inhibitor or prodrug = 100%) and 81% (1 µM compound, without esterase, rate with no inhibitor or prodrug = 100%). Also, the Ki (read-out: rate observed from the final extent of inhibition in the assay in the presence of esterase, 10 µM compound, in the presence of esterase) is 130 nM.
